ChEMBL document CHEMBL1949507, “Synthesis and biological evaluation of [6]-gingerol analogues as transient receptor potential channel TRPV1 and TRPA1 modulators” (Bioorg Med Chem Lett, 2012)

By UniProt entry, the sequences of proteins in these tests, tags left out.
UniProt Q8NER1, whole entry: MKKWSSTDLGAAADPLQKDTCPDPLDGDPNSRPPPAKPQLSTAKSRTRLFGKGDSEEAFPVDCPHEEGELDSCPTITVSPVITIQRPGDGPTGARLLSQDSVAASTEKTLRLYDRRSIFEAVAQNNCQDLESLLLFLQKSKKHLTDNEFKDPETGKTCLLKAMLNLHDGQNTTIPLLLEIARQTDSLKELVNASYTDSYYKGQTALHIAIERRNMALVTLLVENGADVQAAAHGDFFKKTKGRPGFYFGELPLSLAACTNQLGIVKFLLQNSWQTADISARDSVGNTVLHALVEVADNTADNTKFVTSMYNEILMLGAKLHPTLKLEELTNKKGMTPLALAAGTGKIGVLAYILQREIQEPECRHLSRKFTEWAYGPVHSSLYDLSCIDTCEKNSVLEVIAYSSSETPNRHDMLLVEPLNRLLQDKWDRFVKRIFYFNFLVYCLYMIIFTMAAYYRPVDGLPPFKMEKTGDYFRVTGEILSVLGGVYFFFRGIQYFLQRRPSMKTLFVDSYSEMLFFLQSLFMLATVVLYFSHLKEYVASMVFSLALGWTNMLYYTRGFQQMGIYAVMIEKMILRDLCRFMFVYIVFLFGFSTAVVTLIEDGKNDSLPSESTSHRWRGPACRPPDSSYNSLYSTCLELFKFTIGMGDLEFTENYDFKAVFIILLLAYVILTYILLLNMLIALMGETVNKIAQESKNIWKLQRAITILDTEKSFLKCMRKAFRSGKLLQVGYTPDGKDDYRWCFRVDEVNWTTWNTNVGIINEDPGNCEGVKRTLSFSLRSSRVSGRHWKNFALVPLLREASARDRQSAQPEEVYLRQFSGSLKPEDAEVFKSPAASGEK
UniProt Q6RI86, whole entry: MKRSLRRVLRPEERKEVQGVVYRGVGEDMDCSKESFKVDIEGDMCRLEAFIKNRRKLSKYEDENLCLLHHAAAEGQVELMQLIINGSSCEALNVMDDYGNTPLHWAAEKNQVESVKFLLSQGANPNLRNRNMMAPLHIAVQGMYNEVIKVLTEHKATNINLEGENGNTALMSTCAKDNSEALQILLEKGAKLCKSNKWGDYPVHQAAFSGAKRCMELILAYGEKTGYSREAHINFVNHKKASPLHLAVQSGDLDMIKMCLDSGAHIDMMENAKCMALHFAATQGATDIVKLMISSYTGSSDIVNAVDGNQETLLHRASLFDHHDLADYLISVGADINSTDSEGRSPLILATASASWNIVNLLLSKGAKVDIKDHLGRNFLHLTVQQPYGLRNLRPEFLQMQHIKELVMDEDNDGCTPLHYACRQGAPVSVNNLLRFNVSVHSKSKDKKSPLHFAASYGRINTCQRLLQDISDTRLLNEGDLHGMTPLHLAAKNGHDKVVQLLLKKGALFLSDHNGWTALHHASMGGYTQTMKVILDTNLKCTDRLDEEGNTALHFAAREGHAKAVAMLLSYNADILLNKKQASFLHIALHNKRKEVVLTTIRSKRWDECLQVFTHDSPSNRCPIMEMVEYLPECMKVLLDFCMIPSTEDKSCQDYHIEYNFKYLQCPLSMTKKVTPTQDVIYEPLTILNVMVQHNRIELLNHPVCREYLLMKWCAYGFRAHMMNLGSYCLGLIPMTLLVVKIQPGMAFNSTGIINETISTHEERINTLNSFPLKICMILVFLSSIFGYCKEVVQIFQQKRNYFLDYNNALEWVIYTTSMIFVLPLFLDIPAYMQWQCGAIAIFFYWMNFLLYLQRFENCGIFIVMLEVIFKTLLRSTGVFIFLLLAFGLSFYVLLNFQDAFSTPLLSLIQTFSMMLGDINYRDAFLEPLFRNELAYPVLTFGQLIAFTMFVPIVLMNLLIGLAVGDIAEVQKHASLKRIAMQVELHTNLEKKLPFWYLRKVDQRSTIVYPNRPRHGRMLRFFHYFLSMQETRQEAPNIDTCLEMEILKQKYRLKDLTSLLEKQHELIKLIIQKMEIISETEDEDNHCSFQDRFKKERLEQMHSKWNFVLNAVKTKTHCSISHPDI

Tests used:
[1] = molecular target: Transient receptor potential cation channel subfamily V member 1 (Homo sapiens, UniProt Q8NER1); assay: Agonist activity at human TRPV1 ion channel expressed in HEK293 cells assessed as calcium influx by fluo-4-Am-based fluorimetry relative to ionomycin; assay type: functional, cell-based
[2] = molecular target: Transient receptor potential cation channel subfamily A member 1 (Rattus norvegicus) (UniProt Q6RI86); assay: Agonist activity at rat TRPA1 ion channel expressed in HEK293 cells assessed as calcium influx by fluo-4-Am-based fluorimetry relative to allyl isothiocyanate; assay type: functional, cell-based

- Efficacy [1]: < 10%
- Efficacy [2]: < 10%
Structure (SMILES): O=C(CCc1ccc2c(c1)OCO2)CC(O)CCCCCCc1ccccc1 (configuration not stated)
